Amino acid sequences for entries named in this document (tags omitted).
UniProt P16390, whole entry: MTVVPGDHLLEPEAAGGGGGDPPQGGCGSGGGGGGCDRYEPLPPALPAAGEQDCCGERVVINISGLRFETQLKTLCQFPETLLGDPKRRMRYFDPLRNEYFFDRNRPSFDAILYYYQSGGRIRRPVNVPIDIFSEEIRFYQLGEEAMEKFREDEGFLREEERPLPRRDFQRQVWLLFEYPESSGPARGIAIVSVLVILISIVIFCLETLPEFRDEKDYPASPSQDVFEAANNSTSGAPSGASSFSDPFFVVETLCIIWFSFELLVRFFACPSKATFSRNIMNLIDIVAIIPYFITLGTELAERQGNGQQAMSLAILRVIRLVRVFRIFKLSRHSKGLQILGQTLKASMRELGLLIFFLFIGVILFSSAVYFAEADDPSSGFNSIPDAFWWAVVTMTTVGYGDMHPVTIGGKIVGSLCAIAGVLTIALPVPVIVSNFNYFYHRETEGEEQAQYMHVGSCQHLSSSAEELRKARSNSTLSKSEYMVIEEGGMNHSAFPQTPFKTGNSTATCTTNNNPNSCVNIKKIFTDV

According to patent publication US8063093B2, “Potassium channel blockers and uses thereof” (priority 2005, dated 2011):

Target: Kv1.3 (L929 cells stably expressing mKv1.3 or activated human T cells) (Mus musculus, UniProt P16390)
Experiment: Kv1.3 current blockade, whole-cell patch-clamp
Settings: read-out: EC50 (nM) blockade, bounds given in uM
[1] = Table 8, compounds of formula I

EC50 (Table 13, compounds of formula VI)	SMILES	EC50 [1]
	COc1c(C(C)=O)c(O)c(OCc2cccc(C(=O)O)c2)c2occc12	> 10000 nM
	COc1c(C(C)=O)c(O)c(OCc2ccc(C(=O)c3ccccc3)cc2)c2occc12	> 10000 nM
> 10000 nM	COc1c2ccoc2c(OCCOc2ccccn2)c2oc(C)cc(=O)c12	

Where two headings read alike, the source gives them in different places.
